According to patent publication US8791115B2, “Combination of triazine derivatives and insulin sensitisers” (Poxel SAS, priority 2006, dated 2014):

System: diabetic GK rats
Assay: Modulation of glucose levels (glycaemia and oral glucose tolerance test) in diabetic GK rats
Assay type: in vivo, rat
Conditions: triazine salt 100 mg/kg, rosiglitazone 5 mg/kg
Procedure: Biological Test: Modulation of Glucose Levels with the Combinations of the Invention with Insulin Sensitisers
The capacity of the compounds of the invention in combination with insulin-sensitising antidiabetic compounds to modify the blood glucose levels is evaluated in vivo in diabetic GK rats.
Alone or in combination, the antidiabetic agents are administered twice a day (bid) to the GK rats for 4 days. The oral glucose tolerance test (OGTT) is performed after the last day of treatment.
OGTT is performed in the morning after 3 hours of fasting by oral administration of a glucose charge of 2 g/kg of body mass. The blood samples are collected from the tail vein at 0; 10; 20; 30; 45; 60; 90 and 120 minutes to determine the glucose levels.
The two compounds were administered alone and in combination. The doses used for the hydrochloride salt of (+)-2-amino-3,6-dihydro-4-dimethylamino-6-methyl-1,3,5-triazine were 50 and 100 mg/kg PO twice daily for 4 days.

CN(CCOc1ccc(CC2SC(=O)NC2=O)cc1)c1ccccn1 (centres unmarked) [Rosiglitazone, rosiglitazone, reference compound]
% decrease in AUC vs control (OGTT after 4 days of treatment PO bid): −11.6%
Glycaemia R under the curve (AUC) (OGTT, glucose 2 g/kg oral after 3 h fasting, 0-120 min, after 4 days of treatment PO bid): 2954 +/− 150
